Assay results reported in PubChem BioAssay AID504408 (Broad Institute, 2011).
The entries are a selection whose mix differs from that of the whole data set. The source made the active and inactive calls.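 How the source made its calls: active means mean replicate activation of at least 50% with a set share of replicates each reaching 50%; inconclusive means only one of those two conditions met; inactive means mean below 50% and too few replicates reaching it.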

assay: HSF-1 activators, primary screen, NIH3T3-HGL cells, MG132 stress, luminescence, single point (AID 504408); details: NIH3T3-HGL HSF-1 luciferase reporter, MG132, 8 h; at 9 µM; hits give high values; 100% = twice DMSO control signal;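 further: 0% = median of the neutral control wells and 100% = twice that signal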

| Structure (SMILES) | activation |
| --- | --- |
| COc1ccc(CN(CCCl)CCCl)cc1Cl | inactive: -14.2% |
| CN(C)c1cccc(C(=O)NCC2(N3CCCCC3)CCCCC2)c1 | inactive: -15.3% |
| CC(C)c1ccc(NC2CCN(C(=O)OC(C)(C)C)CC2)cc1 | inactive: -7.66% |
| COc1cc(OC)c(C(=O)NCC2(N(C)C)CCCCC2)cc1OC | inactive: -2.24% |
| CN1CCC(Nc2cccc(F)c2)CC1 | inactive: -7.28% |
| CCCOc1ccc(C(=O)NCC2(N(C)C)CCCCC2)cc1OC | inactive: 4.17% |
| O=C(NCC1(N2CCCCC2)CCCCC1)c1ccc(OC(F)F)cc1 | inactive: -7.46% |
| O=C(NCC1(N2CCCCC2)CCCCC1)c1cccc([N+](=O)[O-])c1 | inactive: -12.6% |
| CCN1CCC(Nc2ccc(Cl)cc2)CC1 | inactive: -15.1% |
| N#CC1(Nc2ccccc2)CCN(CCc2ccccc2)CC1 | inactive: -12.4% |
| O=C(NCC1(N2CCCCC2)CCCCC1)c1cccc(C(F)(F)F)c1 | inactive: 6.02% |
| CN1CCN(CCOC(=O)C(O)(c2ccccc2)c2ccccc2)CC1 | inactive: 24.7% |
| COc1ccc(NC2CCN(C(=O)OC(C)(C)C)CC2)cc1 | inactive: -7.19% |
| COc1cc(C(=O)NCC2(N3CCCCC3)CCCCC2)ccc1OC(F)F | inactive: 1.64% |
| O=C(NCC1(N2CCOCC2)CCCCC1)c1cc(=O)[nH]c2ccccc12 | inactive: -8.19% |
| CCOc1ccc(C)cc1CN(CCCl)CCCl | inactive: 9.46% |
| O=C(NCC1(N2CCCCC2)CCCCC1)c1ccc(F)cc1 | inactive: -8.32% |
| COc1ccc(NC2CCN(CCc3ccccc3)CC2)c(OC)c1 | inactive: -16.4% |
| CCOC(=O)N1CCC(Nc2ccc(F)cc2)CC1 | inactive: 21.3% |
| COc1cc(C(=O)NCC2(N(C)C)CCCCC2)ccc1OC(F)F | inactive: -9.18% |

| Structure (SMILES) | activation |
| --- | --- |
| CCOC(=O)N1CCC(Nc2cccc(C)c2)CC1 | inactive: -4.85% |
| Cc1ccc(OCC(C)C)c(CN(CCCl)CCCl)c1 | inactive: 23% |
| O=C(NCC1(N2CCCCC2)CCCCC1)c1ccc(=O)[nH]c1 | inactive: -10.9% |
| O=C(NCC1(N2CCCCC2)CCCCC1)c1cccs1 | inactive: -11.4% |
| COc1ccc(C(=O)NCC2(N3CCCCC3)CCCCC2)cc1 | inactive: -1.12% |
| COc1ccc(C(=O)NCC2(N3CCCCC3)CCCCC2)c(OC)c1OC | inactive: -2.15% |
| CC(C)(C)OC(=O)N1CCC(N(C(=O)c2ccccc2)c2ccc(F)cc2)CC1 | inactive: -2.72% |
| CSc1ccccc1C(=O)NCC1(N2CCCCC2)CCCCC1 | inactive: -4.18% |
| O=C(NCC1(N2CCOCC2)CCCCC1)c1cc2ccccc2o1 | inactive: 31% |
| O=C(NCC1(N2CCCCC2)CCCCC1)c1ccc(Cl)nc1 | inactive: 0.527% |
| Cc1cc(C)cc(N(C(=O)c2ccccc2)C2CCN(C(=O)OC(C)(C)C)CC2)c1 | inactive: 3.61% |
| CCOC(=O)N1CCC(Nc2ccc(OC)cc2)CC1 | inactive: 0.891% |
| O=C(OC1CN2CCC1CC2)C1c2ccccc2Oc2ccccc21 (centres undefined) | inactive: 3.32% |
| N#CC1(Nc2ccccc2)CCN(Cc2ccccc2)CC1 | inactive: -0.679% |
| CCOc1ncccc1C(=O)NCC1(N2CCOCC2)CCCCC1 | inactive: 7.05% |
| CN1CCC(Nc2ccc(F)c(Cl)c2)CC1 | inactive: -1.48% |
| CCCOc1ccc(C(=O)NCC2(N(C)C)CCCCC2)cc1 | inactive: 47.1% |
| CC(C)(C)OC(=O)N1CCC(Nc2ccccc2)CC1 | inactive: 7.63% |
| O=C(O)C1(Nc2ccccc2)CCN(Cc2ccccc2)CC1 | inactive: -5.95% |
| CCC(CO)(C(=O)OC1CN2CCC1CC2)c1ccccc1 (centres undefined) | inactive: -9.9% |

| Structure (SMILES) | activation |
| --- | --- |
| COc1cc(OC)cc(C(=O)NCC2(N3CCOCC3)CCCCC2)c1 | inactive: -3.02% |
| COc1cccc(C(=O)N(c2cc(C)cc(C)c2)C2CCN(C(=O)OC(C)(C)C)CC2)c1 | inactive: 6.18% |
| CCCOc1ccc(C)cc1CN(CCCl)CCCl | inactive: 17.6% |
| CN1CCC(Nc2ccc(Cl)cc2)CC1 | inactive: -20.1% |
| COc1cc(OC)cc(C(=O)NCC2(N3CCCCC3)CCCCC2)c1 | inactive: 10.3% |
| Cc1ccc(C(=O)NCC2(N3CCCCC3)CCCCC2)o1 | inactive: -10.5% |
| Fc1ccccc1NC1CCN(Cc2ccccc2)CC1 | inactive: 5.78% |
| CCN1CCC(Nc2cccc(F)c2)CC1 | inactive: 1.17% |
| CN(C)c1ccc(C(=O)NCC2(N3CCCCC3)CCCCC2)cc1 | inactive: 0.272% |
| CC(C)(C)OC(=O)N1CCC(N(C(=O)c2ccccc2)c2ccc(Cl)cc2)CC1 | inactive: 7.39% |
| N#Cc1ccc(C(=O)NCC2(N3CCCCC3)CCCCC2)cc1 | inactive: -3.3% |
| c1ccc(CN2CCC(Nc3ccccc3)CC2)cc1 | inactive: -2.84% |
| CCCN1CCC(Nc2cc(OC)cc(OC)c2)CC1 | inactive: -19.2% |
| CN(C)C1(CNC(=O)c2cccc(C#N)c2)CCCCC1 | inactive: -5.52% |
| COc1ccc(C(=O)NCC2(N3CCOCC3)CCCCC2)cc1OC | inactive: -8.56% |
| N/C(=N\O)c1c(N)no[n+]1[O-] | inactive: -11% |
| CCOC(=O)N1CCC(Nc2ccc(C)cc2)CC1 | inactive: -7.87% |
| O=C(OC1CN2CCC1CC2)C1c2ccccc2C=Cc2ccccc21 (centres undefined) | inactive: -5.21% |
| CCc1cc(C(=O)NCC2(N3CCCCC3)CCCCC2)sc1C | inactive: -6.57% |
